Where “and” joins values, the source holds several entries; their conditions need not be identical. Identical values can stand only once.

The test system of series [1] is LPS treated mice. The series can be described thus: LPS-induced sickness behaviour: locomotion test. The conditions noted are these: 20 mg·kg^−1 i.p.; 4 and 8 h after LPS. How it is done: FIG. 5. Sub-chronical Compound 1 administration improves behavioural parameters in LPS treated mice. Compound 1 (20 mg·kg^−1) was injected once a day via i.p. four days before the i.p. LPS (0.5 mg·kg^−1) administration, thereafter behavioural tests were conducted. (A) Mice weight change (T0 and T24: saline n=17, LPS n=17, LPS+Compound 1 n=19, T4 and T8 saline n=8, LPS n=7, LPS+Compound 1 n=8). (B) Locomotion activity measured by line crossings of an imaginary grid. (C) Scheme of NOR test. (D) Discrimination index (DI) of the mice studied: saline (n=16), LPS (n=9) and LPS+Compound 1 (n=13).
The LPS in vivo model was induced, sickness behaviour evaluated (locomotion test and novel object recognition test) and cytokines measured by qPCR as described by [Fernindez-Mendivil, Cristina et al. “Protective role of microglial HO-1 blockade in aging: Implication of iron metabolism.” Redox biology vol. 38 (2021): 101789. doi:10.1016/j.redox.2020.101789]. The panel of mouse cytokines, chemokines, and growth factors were measured by Luminex xMAP technology for multiplexed quantification at Evetechnologies (https://www.evetechnologies.com/)
Example 2.3.1. Treatment with Compound 1 reduces LPS-induced cytokine expression and release in mouse brain. […] Thereafter, behavioural, and biochemical outcomes were analysed at different time points.

For series [2], the system named is aged mice with hTauP301L tauopathy. The series can be described thus: hTauP301L FTD model, aged mice: Object location test (OLT). The conditions noted are these: aged (16-18 months) mice; oral 50 mg/kg, 35 days. The procedure: FIG. 10. Compound 1 reduces hyperphosphorylated tau species and improves cognitive behaviour in aged (16-18 months old) mice with hTauP301L tauopathy after days oral administration (50 mg/kg/day). (A). Representative images of hyperphosphorylated tau intensity measured by AT8 and AT180 antibodies in three different regions of the hippocampus (GD, CA3 and CA1) (n=12). (B) Quantification AT8 intensity, normalized to CA3 intensity of Sham animals. (C) Quantification of AT180 intensity, normalized to CA3 intensity of Sham animals. (D) Experimental protocol of T-maze alternation test and (E) Object Location test (OLT). (F) Average of the percentage of success in seven independent attempts (n=6).
In vivo hTau301L model was induced by stereotaxic injection of AAV-hTauP301L (AAV-hTau) particles as described in [Luengo, Enrique et al. “Implication of type 4 NADPH oxidase (NOX4) in tauopathy.” Redox biology vol. 49 (2022): 102210. doi:10.1016/j.redox.2021.102210]. Control animals were injected with AAV-GFP. […]
Example 2.6. […] 35 Days of treatment with a single oral dose of Compound 1 at 50 mg/kg reduced hyperphosphorylated tau levels induced by hTauP301L, measured by AT8 and AT180 antibodies in DG, CA3 and CA1 regions of the hippocampus (FIG. 10A-C). […]

Series [3] can be described thus: Liver microsome stability, mouse. The conditions noted are these: mouse liver microsomes. An excerpt: Example 3.3. Stability in mouse, dog, and human liver microsomes. […] In this line, results in two different species correlated with human microsomes. […] This correlation is widely described for different drugs in which mouse metabolism is higher due to the high blood flow and quick metabolic status of mice.
(Microsomes from liver hold many membrane-bound enzymes, among them those of drug oxidation.)

Series [4] in a line: Plasma pharmacokinetics, intraperitoneal and oral administration. The conditions noted are these: male C57BL/6 mice; for AUClast / Cmax / T1/2 / Tmax: plasma. An excerpt:
Example 3.4. Pharmacokinetic studies by intraperitoneal and oral administration.

In the case of `COc1ccc2c(c1)CC(c1c[nH]c3ccc(OC)cc13)N2` (stereo not shown), in series [1], the “Locomotion (line crossings of an imaginary grid)” value is reported as “improved”. The “spatial memory loss, OLT” value in series [2] is listed as “prevented”. Also, in series [3], the T1/2 is 3.7 min and 3.7 ± 0.1 min. Also, the “time of peak plasma concentration” value in series [4] (i.p. 20 mg/kg) was 15 min. Also, in series [4] (oral 50 mg/kg), the “time of peak plasma concentration” value worked out at 30 min. Also, in series [4] (IP 20 mg/kg), the AUClast was 11697.95 ng·h/mL, the Cmax is 10931.75 ng/mL, the T1/2 worked out at 224 min and the Tmax turned out to be 15 min. In addition, in series [4] (PO 50 mg/kg), the AUClast was found to be 4531.29 ng·h/mL, the highest concentration (Cmax) is recorded as 3019.19 ng/mL, the T1/2 was 496 min and the time of peak concentration (Tmax) was 30 min.

What is called Cmax is the peak of the concentration-time curve. The Tmax is the time from dosing to the highest level.

(Values after patent US20260382572A1, “TREATMENT OF FRONTOTEMPORAL DEMENTIA OR FRONTOTEMPORAL LOBAR DEMENTIA” (published 2026).)
